## Antibody variant affinities, Ab-14 light chain, assay 1

Binding partner: SARS-CoV-2 spike HR2 peptide, sequence PDVDLGDISGINAS.

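The starting antibody came from a phage panning campaign against this peptide. The library (AAYL50) carries one to three amino acid substitutions per variant, with no insertions or deletions. The assay is AlphaSeq: two haploid yeast populations carry antibody and antigen on their surface. After mating in shaken culture at 30 °C for 16 h, diploids were selected and their barcode pairs sequenced. A regression on co-assayed BCL2-family reference pairs converts the normalised counts of each replicate to an apparent Kd. Mating was done three times.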

Parent: Ab-14, a human scFv built as VH, three GGGGS repeats, VL. Only the CDRs of the light chain vary.
VH: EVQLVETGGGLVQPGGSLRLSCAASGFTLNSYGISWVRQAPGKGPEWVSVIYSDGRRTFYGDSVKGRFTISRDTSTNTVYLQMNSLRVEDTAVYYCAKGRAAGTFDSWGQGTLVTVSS
VL: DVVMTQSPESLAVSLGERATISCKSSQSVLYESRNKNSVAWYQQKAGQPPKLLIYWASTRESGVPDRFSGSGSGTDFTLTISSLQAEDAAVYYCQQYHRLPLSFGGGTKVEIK

The whole VL of each variant is written out.
All variants listed here change Y31 of the VL, counted from its first residue.
The Kd shown is the geometric mean over detected replicates; a lower Kd is a better binder.
An entry "nd" has no value in the source: the pair was not observed among the diploids in any replicate. This suggests poor binding but is not conclusive.
Background: pairings of library AAYL50 with three empty control strains gave a value in 18% of cases (median 15 µM, 5th percentile 970 nM). Values in that range, when seen in few replicates, are hard to tell from nonspecific mating.

The variant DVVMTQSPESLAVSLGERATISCKSSQSVLQESRNKNSVAWYQQKAGQPPKLLIYWASTRESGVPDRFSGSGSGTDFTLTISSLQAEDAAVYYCRQYHRLPLSFGGGTKVEIK showed 100 nM (3 of 3 replicates).
The variant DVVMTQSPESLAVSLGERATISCKFSQSVLVESRNKNSVAWYQQKAGQPPKLLIYWASTRESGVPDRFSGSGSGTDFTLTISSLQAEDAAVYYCQQYHRLKLSFGGGTKVEIK showed 1.7 µM (1 of 3 replicates).
The variant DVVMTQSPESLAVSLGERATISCKSYQSVLNESRNKNSVNWYQQKAGQPPKLLIYWASTRESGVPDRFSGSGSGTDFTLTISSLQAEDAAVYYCQQYHRLPLSFGGGTKVEIK showed nd (0 of 3 replicates).
The variant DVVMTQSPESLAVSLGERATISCKSSQKVLTESRNKNSVAWYQQKAGQPPKLLIYWASTRESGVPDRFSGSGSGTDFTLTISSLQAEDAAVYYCQQYHQLPLSFGGGTKVEIK showed 14 nM (3 of 3 replicates).
The variant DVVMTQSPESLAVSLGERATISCKSSQSVLWESRNKNSVAWYQQKAGQPPKLLIYWASTRESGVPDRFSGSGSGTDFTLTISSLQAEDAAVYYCQQYHRLPLSFGGGTKVEIK showed 11 nM (3 of 3 replicates).
The variant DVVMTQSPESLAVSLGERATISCKSSQSVLMESRNKNSVAWYQQKAGQPPKLLIYWASLRESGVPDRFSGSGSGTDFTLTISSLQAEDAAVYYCQQYHLLPLSFGGGTKVEIK showed 11 nM (3 of 3 replicates).
The variant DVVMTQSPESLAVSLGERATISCKSSQSVLSESRNKNSHAWYQQKAGQPPKLLIYQASTRESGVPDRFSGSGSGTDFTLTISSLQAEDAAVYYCQQYHRLPLSFGGGTKVEIK showed 230 nM (3 of 3 replicates).
The variant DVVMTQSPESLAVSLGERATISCKSSQSVLNESRNKNDVAWYQQKAGQPPKLLIYWASTRESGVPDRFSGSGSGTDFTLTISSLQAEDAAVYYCQQSHRLPLSFGGGTKVEIK showed 12 nM (3 of 3 replicates).
The variant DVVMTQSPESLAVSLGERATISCKSSQSVLGESRNKNSVAWYQQKAGQPPKLLIYWAFTRESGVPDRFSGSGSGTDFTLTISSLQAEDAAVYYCQQYHTLPLSFGGGTKVEIK showed 66 nM (3 of 3 replicates).
The variant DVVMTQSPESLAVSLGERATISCKSSQSVLAESRNKNLVAWYQQKAGQPPKLLIYWASTRQSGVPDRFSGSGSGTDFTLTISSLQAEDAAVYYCQQYHRLPLSFGGGTKVEIK showed nd (0 of 3 replicates).
The variant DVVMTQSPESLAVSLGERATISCKSSHSVLGESRNKNSVAWYQQKAGQPPKLLIYWASTRESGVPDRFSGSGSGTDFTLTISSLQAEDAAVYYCQQYHRLPLSFGGGTKVEIK showed 3.4 nM (3 of 3 replicates).
The variant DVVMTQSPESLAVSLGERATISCKSSQSVLLESRNFNSWAWYQQKAGQPPKLLIYWASTRESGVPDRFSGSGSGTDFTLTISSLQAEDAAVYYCQQYHRLPLSFGGGTKVEIK showed 110 nM (1 of 3 replicates).
The variant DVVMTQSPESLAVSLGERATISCKSSQSWLSESRNKNSVAWYQQKAGQPPKLLIYWASTRESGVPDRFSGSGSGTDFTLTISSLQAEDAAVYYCQQYHWLPLSFGGGTKVEIK showed 50 nM (3 of 3 replicates).
The variant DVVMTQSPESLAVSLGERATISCKSSQSVLWESRNKNSVAWYQQKAGQPPKLLIYWASTRESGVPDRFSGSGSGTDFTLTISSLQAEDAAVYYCCQYDRLPLSFGGGTKVEIK showed 5.7 µM (2 of 3 replicates).
The variant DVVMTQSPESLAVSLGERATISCKSSQSVLFESRNKNSVAWYQQKAGQPPKLLIYWASTRTSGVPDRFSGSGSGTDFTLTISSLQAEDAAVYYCQQYHRLPYSFGGGTKVEIK showed nd (0 of 3 replicates).
The variant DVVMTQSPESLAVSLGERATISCKSSQEVLRESRNKNSVAWYQQKAGQPPKLLIYWAGTRESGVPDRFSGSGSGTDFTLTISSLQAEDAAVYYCQQYHRLPLSFGGGTKVEIK showed nd (0 of 3 replicates).
The variant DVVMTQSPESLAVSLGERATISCKSSQSVLWSSRNKNSVAWYQQKAGQPPKLLIYWASTRESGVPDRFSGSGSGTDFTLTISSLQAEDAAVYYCQQYHALPLSFGGGTKVEIK showed 31 nM (3 of 3 replicates).

Source: Engelhart et al. 2022 (doi:10.1038/s41597-022-01779-4), MIT Lincoln Laboratory and A-Alpha Bio; data file from the FLAb repository.